How the values were obtained:
[1] = target: SGLT2 (Homo sapiens, UniProt P31639); experiment: SGLT2 activity measurement: 14C-AMG uptake in BHK cells transfected with SGLT2; conditions: read-out: SGLT2-IC50, AMG 2 mM, 37° C., 90 min
Text: (§1) The compounds can be tested on their SGLT inhibition properties by means of BHK cells expressing SGLT1 and SGLT2. The production of the cells and the testing can be carried out as described below.
To construct the SGLT2 expression vector (KL224), the SLC5A2 gene (homologous to NM_003041) was amplified from a cDNA library using standard PCR technology and cloned over NheI/XhoI sites into PCI-neo expression vector (Promega) containing neomycin as a selection marker. In this vector, transcription used the enhancer/promoter of human cytomegalovirus and the SV40 polyadenylation signal.
The final vector KL224 together with an additional vector containing a dihydrofolate reductase gene as a selection marker was introduced into cells. […]
(§2) BHK cells (transfected with SGLT1 or SGLT2) were seeded into 96-well microtitre plates (Cultureplates, Perkin Elmer). […] The radioactivity was counted in a Topcount microplate scintillation counter (Perkin Elmer). The non-specific uptake was determined in sodium-free assay buffer (266 mM sucrose, 2 mM KCl, 1 mM CaCl2, 1 mM MgCl2, 10 mM HEPES, 5 mM Tris, adjusted with 1 M KOH to pH 7.4).

The chains behind the UniProt entries cited, without tags or fusion partners.
UniProt P31639, whole entry: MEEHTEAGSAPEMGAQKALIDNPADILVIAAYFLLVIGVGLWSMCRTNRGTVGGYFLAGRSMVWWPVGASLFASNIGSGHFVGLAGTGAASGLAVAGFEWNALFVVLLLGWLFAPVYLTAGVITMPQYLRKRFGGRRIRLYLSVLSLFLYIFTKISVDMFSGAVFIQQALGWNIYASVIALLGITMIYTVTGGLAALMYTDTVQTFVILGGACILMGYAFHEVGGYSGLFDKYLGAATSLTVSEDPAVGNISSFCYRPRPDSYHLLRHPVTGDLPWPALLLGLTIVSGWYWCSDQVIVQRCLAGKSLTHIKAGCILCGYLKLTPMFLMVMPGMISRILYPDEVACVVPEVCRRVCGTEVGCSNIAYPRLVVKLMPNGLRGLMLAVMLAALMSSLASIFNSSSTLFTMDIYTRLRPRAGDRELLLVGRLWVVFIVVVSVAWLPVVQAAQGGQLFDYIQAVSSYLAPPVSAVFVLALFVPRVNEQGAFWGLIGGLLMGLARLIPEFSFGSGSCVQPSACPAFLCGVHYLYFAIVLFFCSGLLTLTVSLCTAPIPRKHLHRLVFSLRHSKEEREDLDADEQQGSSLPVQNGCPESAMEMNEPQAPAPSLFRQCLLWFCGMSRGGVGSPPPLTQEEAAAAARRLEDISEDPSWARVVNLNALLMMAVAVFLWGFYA
UniProt P13866, whole entry: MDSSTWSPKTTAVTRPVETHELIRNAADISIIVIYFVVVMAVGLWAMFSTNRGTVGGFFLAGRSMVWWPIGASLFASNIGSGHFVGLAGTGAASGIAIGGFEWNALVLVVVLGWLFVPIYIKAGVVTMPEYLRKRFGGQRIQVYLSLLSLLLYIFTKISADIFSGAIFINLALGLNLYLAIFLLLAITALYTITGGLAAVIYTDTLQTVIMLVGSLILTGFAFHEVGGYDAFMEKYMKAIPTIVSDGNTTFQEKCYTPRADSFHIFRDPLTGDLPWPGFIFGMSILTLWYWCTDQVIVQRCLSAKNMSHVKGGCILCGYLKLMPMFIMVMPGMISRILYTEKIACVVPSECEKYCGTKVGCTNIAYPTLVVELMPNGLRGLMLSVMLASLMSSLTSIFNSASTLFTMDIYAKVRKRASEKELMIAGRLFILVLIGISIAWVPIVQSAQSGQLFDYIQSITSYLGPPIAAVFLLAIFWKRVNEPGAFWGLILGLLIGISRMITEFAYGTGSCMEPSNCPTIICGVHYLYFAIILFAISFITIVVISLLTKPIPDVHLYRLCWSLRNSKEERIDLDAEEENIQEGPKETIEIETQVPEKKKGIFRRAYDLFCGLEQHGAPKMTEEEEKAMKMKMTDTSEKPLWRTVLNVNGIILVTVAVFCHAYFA

[2] = target: SGLT1 (Homo sapiens, UniProt P13866); experiment: SGLT1 activity measurement: 14C-AMG uptake in BHK cells transfected with SGLT1; conditions: read-out: SGLT1-IC50, AMG 50 μM, 37° C., 90 min
Text: as §1
To construct the SGLT1 expression vector (KL225), the SLC5A1 gene (homologous to NM_000343) was amplified from a cDNA library using standard PCR technology and cloned over NheI/XhoI sites into pcDNA3.1 expression vector (Invitrogen) containing neomycin as a selection marker. In this vector, transcription uses the enhancer/promoter of human cytomegalovirus.
The final vector KL225 together with an additional vector containing a dihydrofolate reductase gene as a selection marker was introduced into cells. […]
as §2

Compound: Cc1cccc(C)c1Nc1c(-c2c(C)cc(OS(C)(=O)=O)cc2OCC(N)=O)nc2ccccn12
- IC50 [1]: 0.01 to 1 µM
- IC50 [2]: > 10 µM

— patent publication US8258151B2, “3-aminoimidazo [1,2-A] pyridine derivatives as SGLT inhibitors” (Merck Patent GmbH, priority 2006, dated 2012)
